The source of these data is ChEMBL document CHEMBL1126266, “Dopaminergic and serotonergic activities of imidazoquinolinones and related compounds” (J Med Chem, 1992).

The chains behind the UniProt entries cited, without tags or fusion partners.
UniProt P61169, whole entry: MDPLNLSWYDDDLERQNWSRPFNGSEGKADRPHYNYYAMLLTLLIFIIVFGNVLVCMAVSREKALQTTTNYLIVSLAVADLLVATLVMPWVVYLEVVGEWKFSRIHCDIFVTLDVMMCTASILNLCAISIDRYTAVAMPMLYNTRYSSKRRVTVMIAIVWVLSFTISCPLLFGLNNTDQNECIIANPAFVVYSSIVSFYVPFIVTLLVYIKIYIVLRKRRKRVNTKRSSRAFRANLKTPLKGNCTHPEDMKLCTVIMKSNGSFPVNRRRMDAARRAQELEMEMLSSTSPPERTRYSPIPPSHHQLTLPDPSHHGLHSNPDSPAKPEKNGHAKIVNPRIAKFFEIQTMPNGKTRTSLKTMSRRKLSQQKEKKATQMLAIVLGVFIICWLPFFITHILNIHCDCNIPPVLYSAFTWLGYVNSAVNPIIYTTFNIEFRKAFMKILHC

As a reminder, the pKi is the negative decadic logarithm of the Ki, by convention in mol/L.

pKi: −log10 of the molar value.

This assay concerns the target D(2) dopamine receptor (Rattus norvegicus, UniProt P61169). Briefly: Ability to displace [3H]raclopride from dopamine receptor D2 in rat striatal homogenates. In outline: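 Rat striatal homogenate (1:300) incubated with [3H]raclopride (80 Ci/mmol) 1 h at room temperature. Filtered over PEI-pretreated filters, rinsed with 50 mM Tris pH 7.4, counted by liquid scintillation. Nonspecific binding with 1 μM haloperidol. IC50 by log-probit analysis from at least four concentrations in triplicate; Ki calculated from IC50.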

`CN1CCc2cccc3c2[C@H]1Cc1ccc(O)c(O)c1-3` [APOMORPHINE] gave a pKi of 7.34.
